# Reference: ChEMBL document CHEMBL1135353, “Synthesis and initial SAR studies of 3,6-disubstituted pyrazolo[1,5-a]pyrimidines: a new class of KDR kinase inhibitors” (Bioorg Med Chem Lett, 2002)
# Sequences of proteins named here, by UniProt entry; tags and fusion partners are left off.
# UniProt P35968, whole entry: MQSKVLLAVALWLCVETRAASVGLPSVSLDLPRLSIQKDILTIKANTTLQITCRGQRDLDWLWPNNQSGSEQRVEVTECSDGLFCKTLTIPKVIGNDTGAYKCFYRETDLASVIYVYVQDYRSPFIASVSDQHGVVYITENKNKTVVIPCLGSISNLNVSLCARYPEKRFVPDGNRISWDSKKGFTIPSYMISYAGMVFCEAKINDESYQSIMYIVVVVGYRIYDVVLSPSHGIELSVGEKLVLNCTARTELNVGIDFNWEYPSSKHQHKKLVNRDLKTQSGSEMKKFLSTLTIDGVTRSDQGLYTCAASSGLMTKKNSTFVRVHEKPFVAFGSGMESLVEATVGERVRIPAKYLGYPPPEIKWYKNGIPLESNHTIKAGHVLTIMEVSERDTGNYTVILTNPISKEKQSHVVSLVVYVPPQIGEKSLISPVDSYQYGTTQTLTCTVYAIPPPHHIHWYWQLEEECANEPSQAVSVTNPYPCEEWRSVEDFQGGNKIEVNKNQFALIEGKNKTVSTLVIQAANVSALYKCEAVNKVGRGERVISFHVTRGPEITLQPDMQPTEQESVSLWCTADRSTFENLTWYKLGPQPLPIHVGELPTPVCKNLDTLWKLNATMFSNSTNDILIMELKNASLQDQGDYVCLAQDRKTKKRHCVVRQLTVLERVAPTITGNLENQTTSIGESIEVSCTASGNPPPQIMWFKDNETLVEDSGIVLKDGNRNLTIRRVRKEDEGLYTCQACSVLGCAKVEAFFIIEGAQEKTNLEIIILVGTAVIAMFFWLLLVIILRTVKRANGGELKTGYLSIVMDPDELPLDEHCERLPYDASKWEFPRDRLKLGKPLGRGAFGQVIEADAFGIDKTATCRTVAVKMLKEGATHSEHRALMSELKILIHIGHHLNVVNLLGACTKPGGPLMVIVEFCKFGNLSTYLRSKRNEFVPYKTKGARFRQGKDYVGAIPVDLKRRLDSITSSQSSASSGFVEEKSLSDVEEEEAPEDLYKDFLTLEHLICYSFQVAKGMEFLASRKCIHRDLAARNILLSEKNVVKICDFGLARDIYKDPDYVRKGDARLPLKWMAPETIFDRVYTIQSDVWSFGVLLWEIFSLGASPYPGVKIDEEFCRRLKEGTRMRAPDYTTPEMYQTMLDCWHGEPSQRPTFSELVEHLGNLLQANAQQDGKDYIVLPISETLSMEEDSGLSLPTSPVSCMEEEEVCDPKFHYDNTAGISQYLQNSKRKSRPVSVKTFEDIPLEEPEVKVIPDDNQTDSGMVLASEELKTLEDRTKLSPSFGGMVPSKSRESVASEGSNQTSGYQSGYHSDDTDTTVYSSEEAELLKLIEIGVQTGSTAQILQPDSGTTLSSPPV
# Biological target: Vascular endothelial growth factor receptor 2 (Homo sapiens, UniProt P35968)
# Test: Inhibitory activity at VEGF-2 receptor.
compound,measurement,value
COc1ccc(-c2cnc3c(-c4ccsc4)cnn3c2)cc1,IC50,19 nM
